Data on five molecules can be found in ChEMBL document CHEMBL1671772, “Predicting hERG activities of compounds from their 3D structures: development and evaluation of a global descriptors based QSAR model” (Eur J Med Chem, 2011).

The chains behind the UniProt entries cited, without tags or fusion partners. Where a name states a change or a piece, a line headed by the entry shows the natural chain unless it says otherwise.
UniProt Q12809: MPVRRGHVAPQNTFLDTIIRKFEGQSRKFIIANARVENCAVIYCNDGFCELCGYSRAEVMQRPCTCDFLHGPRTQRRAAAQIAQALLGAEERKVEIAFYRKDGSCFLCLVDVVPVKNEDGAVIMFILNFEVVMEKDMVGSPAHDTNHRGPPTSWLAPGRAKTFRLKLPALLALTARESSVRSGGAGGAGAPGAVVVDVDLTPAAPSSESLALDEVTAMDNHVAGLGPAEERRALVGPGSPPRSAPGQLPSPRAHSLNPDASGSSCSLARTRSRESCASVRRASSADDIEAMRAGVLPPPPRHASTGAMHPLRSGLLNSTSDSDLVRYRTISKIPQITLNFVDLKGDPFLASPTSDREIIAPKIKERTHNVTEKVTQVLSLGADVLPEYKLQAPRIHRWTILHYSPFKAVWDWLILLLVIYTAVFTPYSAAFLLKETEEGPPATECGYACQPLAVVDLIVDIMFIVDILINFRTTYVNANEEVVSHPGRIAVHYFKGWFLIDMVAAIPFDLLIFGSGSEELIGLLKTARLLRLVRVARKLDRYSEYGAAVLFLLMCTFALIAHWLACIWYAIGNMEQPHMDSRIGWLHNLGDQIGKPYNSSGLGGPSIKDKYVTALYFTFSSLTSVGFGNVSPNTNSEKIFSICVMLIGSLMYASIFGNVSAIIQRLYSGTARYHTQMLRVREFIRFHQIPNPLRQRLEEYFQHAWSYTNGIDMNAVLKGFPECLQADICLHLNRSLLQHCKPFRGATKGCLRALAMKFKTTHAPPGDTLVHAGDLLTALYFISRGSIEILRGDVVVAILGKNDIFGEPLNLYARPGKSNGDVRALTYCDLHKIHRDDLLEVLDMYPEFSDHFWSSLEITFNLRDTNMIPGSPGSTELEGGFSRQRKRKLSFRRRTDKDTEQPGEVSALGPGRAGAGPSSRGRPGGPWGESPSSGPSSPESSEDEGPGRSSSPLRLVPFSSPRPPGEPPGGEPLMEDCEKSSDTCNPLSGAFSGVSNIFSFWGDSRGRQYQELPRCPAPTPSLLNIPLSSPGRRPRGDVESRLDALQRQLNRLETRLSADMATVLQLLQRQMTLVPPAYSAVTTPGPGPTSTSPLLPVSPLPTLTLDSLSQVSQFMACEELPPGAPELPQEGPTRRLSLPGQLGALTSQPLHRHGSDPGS

For test [1], the target named is T1, Voltage-gated inwardly rectifying potassium channel KCNH2 (Homo sapiens, UniProt Q12809).
The target in test [2] is T1, Voltage-gated inwardly rectifying potassium channel KCNH2. This is another data set of the same source.

In test [1], `CCC(CC)c1cn(-c2ccc(F)cc2)c2ccc(Cl)cc12` came in with a negative logarithm of the IC50 (pIC50) of 2.83.
Consider `c1ccc(-c2[nH]c3ccccc3c2C2CCCNC2)cc1` (stereo not given), for which, in test [2], the IC50 was 4.9 µM.
The molecule `CC(C)COCC(CN(Cc1ccccc1)c1ccccc1)N1CCCC1` (stereo not given) [BEPRIDIL] gave an IC50 in test [2] of 0.0229 µM.
Regarding `OC(c1cc(C(F)(F)F)nc2c(C(F)(F)F)cccc12)C1CCCCN1` (stereo not given) [MEFLOQUINE], in test [2], 5.5 µM corresponded to half-maximal inhibition (IC50).
In the case of `CN1CCCCC1CCN1c2ccccc2Sc2ccc([S+](C)[O-])cc21` (stereo not given) [MESORIDAZINE], the IC50 in test [2] is 0.316 µM.
